Measured values as given in patent US6521633B2, “Treating NIDDM with RXR agonists” (Ligand Pharmaceuticals Incorporated, priority 1995, dated 2003).

How the values were obtained:
[1] = system: LPL (lipoprotein lipase) mRNA and PPARγ mRNA; experiment: Northern blot analysis of adipocyte specific genes in 3T3-LI cells; assay type: cell-based, mouse; details: 3T3-LI treated for 7 days; BRL 49653 1 μM, LG 100268 1 μM, insulin 0.01 mg/ml
C3H/10T1/2 cells = experiment: Oil red O staining of C3H/10T1/2 cells; assay type: cell-based, mouse; details: for Experiment B (+BRL + Insulin) % differentiated cells / Experiment A (+BRL) % differentiated cells: 7 days

## CN(CCOc1ccc(CC2SC(=O)NC2=O)cc1)c1ccccn1 (stereo not shown) [BRL 49653, 5-[[4-[2-(methyl-2-pyridinylamino)ethoxy]phenyl]methyl]-2,4-thiazolidinedione]
[1]
  LPL and PPARγ mRNA levels, relative signal normalized to β-actin: three to five fold increase
C3H/10T1/2 cells; BRL 0.1 μM + insulin 0.01 mg/ml, alone or plus ALRT 1057 1 μM or LGD 1069 1 μM
  Experiment B (+BRL + Insulin) % differentiated cells: 60%
C3H/10T1/2 cells; BRL 0.1 μM alone or plus ALRT 1057 1 μM, LGD 1069 1 μM or TTNPB 10 nM
  Experiment A (+BRL) % differentiated cells: 5%
C3H/10T1/2 cells; BRL 1 μM + insulin 0.01 mg/ml
  Experiment B (+BRL + Insulin) % differentiated cells: 80%
C3H/10T1/2 cells; BRL 1 μM
  Experiment A (+BRL) % differentiated cells: 8%
C3H/10T1/2 cells; BRL 10 μM + insulin 0.01 mg/ml, alone or plus ALRT 1057 1 μM, LGD 1069 1 μM or TTNPB 10 nM
  Experiment B (+BRL + Insulin) % differentiated cells: 80%
C3H/10T1/2 cells; BRL 10 μM alone or plus ALRT 1057 1 μM, LGD 1069 1 μM or TTNPB 10 nM
  Experiment A (+BRL) % differentiated cells: 10%
C3H/10T1/2 cells; BRL 49653 alone
  cells undergoing adipocyte differentiation: no more than 10%
C3H/10T1/2 cells; middle group r17-r20, headed BRL (0.1 μM), + insulin 0.01 mg/ml, alone or plus ALRT 1057 1 μM, LGD 1069 1 μM or TTNPB 10 nM
  Experiment B (+BRL + Insulin) % differentiated cells: 80%
C3H/10T1/2 cells; middle group r17-r20, headed BRL (0.1 μM), alone or plus ALRT 1057 1 μM, LGD 1069 1 μM or TTNPB 10 nM
  Experiment A (+BRL) % differentiated cells: 8%
